{
  "source": "patent US4769389A",
  "about": "“Oxygenated-alkyl derivatives of glutamic and aspartic acids with antagonistic activity to bio-active polypeptides and a method for their preparation” (priority 1985, dated 1988)",
  "key": {"guinea-pig gallbladder": {"test_system": "guinea-pig gallbladder", "experiment": "Anti-CCK activity on guinea-pig gallbladders in vitro (contraction by CCK-8)", "settings": "vs CCK-8 10 ng/ml", "method": "ANTI-CCK ACTIVITY ON GUINEA-PIG GALLBLADDERS IN VITRO A longitudinal strip of guinea-pig gallbladder is placed in a bath for isolated organs in Krebs at a temperature of 32° C. and oxygenated continuously with an oxygen-CO2 mixture (95-[…]). The isometric contractions were detected by means of a force transducer and recorded. […] The results obtained are shown in Table 3 which gives the compounds tested and the IC50 values found which were calculated by the method of regression in a test of at least three experiments for each compound studied."}, "[1]": {"test_system": "pancreatitis in rats induced experimentally by taurocholate", "experiment": "Pancreatitis induced by sodium taurocolate in rats", "format": "in vivo", "method": "The products under examination were administered intraperitoneally (i.p.) 30 minutes before the operation and 3 hours after the operation. Six hours after the laparatomy the blood was removed from the retro-orbitory plexus after anaesthesia with ether, the animals were killed and the pancreas was removed and weighed. The activity of the serum amylase was determined by the method described above."}, "in vivo": {"experiment": "in vivo", "settings": "mouse, iv"}, "[2]": {"test_system": "pancreatitis in mice induced experimentally by cerulein", "experiment": "Pancreatitis induced by cerulein in mice", "format": "in vivo", "method": "Adult male mice received six injections of cerulein (Takus) (50 mcg/kg) each hour for six hours.\nThe compound was administered 30 minutes before each administration of cerulein. Nine hours after the beginning of the treatment, the blood was taken from the rectro-orbitory plexus after anaesthesia with ether, the animals were killed and the pancreas removed and weighed."}},
  "data": [
    {"smiles": "CCCCCN(CCCOC)C(=O)C(CCC(=O)O)NC(=O)c1ccc(Cl)c(Cl)c1", "note": "(racemic) [Compound 1]", "values": [
      {"measurement": "50% antagonising concentration relative to that of the specific agonist", "setting": "guinea-pig gallbladder", "value": "about 10 times"},
      {"measurement": "RATIO WEIGHT OF PANCREAS / ANIMAL WEIGHT", "setting": "[1]; 5 mg/kg i.p. + taurocholate", "value": 0.47, "unit": "%"},
      {"measurement": "RATIO WEIGHT OF PANCREAS / ANIMAL WEIGHT", "setting": "[1]; 10 mg/kg i.p. + taurocholate", "value": 0.42, "unit": "%"},
      {"measurement": "RATIO WEIGHT OF PANCREAS / ANIMAL WEIGHT", "setting": "[1]; 20 mg/kg i.p. + taurocholate", "value": 0.39, "unit": "%"},
      {"measurement": "LD50", "setting": "in vivo", "value": 396, "unit": "mg/kg"},
      {"measurement": "selectivity ratio", "setting": "in vivo", "value": 3600},
      {"measurement": "RATIO WEIGHT OF PANCREAS / ANIMAL WEIGHT", "setting": "[2]; 5 mg/kg ip + cerulein", "value": 0.46, "unit": "%"},
      {"measurement": "RATIO WEIGHT OF PANCREAS / ANIMAL WEIGHT", "setting": "[2]; 7.5 mg/kg ip + cerulein", "value": 0.40, "unit": "%"},
      {"measurement": "RATIO WEIGHT OF PANCREAS / ANIMAL WEIGHT", "setting": "[2]; 10 mg/kg ip + cerulein", "value": 0.36, "unit": "%"}
    ]}
  ]
}
